Laboratory results from publication PMC11602157, “ZNF512B binds RBBP4 via a variant NuRD interaction motif and aggregates chromatin in a NuRD complex-independent manner” (Nucleic Acids Research, 2024).

Chains of the proteins cited; added tags and fusions are not shown.
RBBP4, recombinant, for fluorescence polarization (human), Q09028, UniProt Q09028, whole entry: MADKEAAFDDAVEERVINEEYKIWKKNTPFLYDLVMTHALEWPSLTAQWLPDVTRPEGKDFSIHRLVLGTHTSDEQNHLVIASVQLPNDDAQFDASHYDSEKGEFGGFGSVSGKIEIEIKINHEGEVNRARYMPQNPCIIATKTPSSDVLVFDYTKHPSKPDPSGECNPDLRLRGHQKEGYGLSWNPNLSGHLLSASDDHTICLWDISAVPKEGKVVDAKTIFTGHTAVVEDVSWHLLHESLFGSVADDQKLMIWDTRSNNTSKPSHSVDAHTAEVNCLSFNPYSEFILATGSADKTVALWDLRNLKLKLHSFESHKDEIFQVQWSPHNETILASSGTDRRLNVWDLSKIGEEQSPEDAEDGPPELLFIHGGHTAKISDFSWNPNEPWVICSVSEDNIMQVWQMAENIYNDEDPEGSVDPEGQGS

Target: RBBP4, recombinant, for fluorescence polarization (human), Q09028
Test: fluorescence polarisation; competitive: unlabeled peptide (1.0–0.0 mM series) added to preformed complex of 1 nM FAM tracer and 40 nM RBBP4; 50 mM Tris-HCl pH 7.5, 150 mM NaCl, 0.02% Triton X-100; read after 60 min; ki from IC50

MSRRKQSNPRQI (modifications not checked) [FOG-1 NIM peptide] showed a Ki of 1200 nM.
